Laboratory results: ChEMBL document CHEMBL1133869, “Synthesis and biological activity of L-tyrosine-based PPARgamma agonists with reduced molecular weight” (Bioorg Med Chem Lett, 2001)

Experiments:
[1] = biological target: T1, Peroxisome proliferator-activated receptor alpha (Homo sapiens, UniProt Q07869)
T1 sequence (Q07869 whole entry): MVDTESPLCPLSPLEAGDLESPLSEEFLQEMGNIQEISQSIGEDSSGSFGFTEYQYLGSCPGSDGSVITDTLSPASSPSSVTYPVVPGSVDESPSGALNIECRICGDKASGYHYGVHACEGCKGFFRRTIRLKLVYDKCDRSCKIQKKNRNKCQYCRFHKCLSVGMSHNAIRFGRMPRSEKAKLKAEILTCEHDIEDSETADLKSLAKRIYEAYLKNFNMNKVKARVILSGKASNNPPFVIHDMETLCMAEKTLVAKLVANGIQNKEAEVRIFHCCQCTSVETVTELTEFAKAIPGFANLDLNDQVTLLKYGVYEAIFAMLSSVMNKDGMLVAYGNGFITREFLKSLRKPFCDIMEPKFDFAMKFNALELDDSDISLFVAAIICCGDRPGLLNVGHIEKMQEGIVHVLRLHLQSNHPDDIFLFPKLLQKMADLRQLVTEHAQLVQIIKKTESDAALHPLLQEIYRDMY

[2] = biological target: T1, Peroxisome proliferator-activated receptor alpha; assay: Maximal reporter activity against human Peroxisome proliferator activated receptor alpha Gal4 chimeric in transiently transfected CV-1 cells by functional assay.; format: cell-based

## CCCN[C@@H](Cc1ccc(OCCc2nc(-c3ccccc3)oc2C)cc1)C(=O)O
[1]
  Ki: 72 nM
[2]
  EC50: 830 nM

## Cc1oc(-c2ccccc2)nc1CCOc1ccc(C[C@H](Nc2ncccn2)C(=O)O)cc1
[1]
  Ki: 1200 nM
